# Curated experimental data: properties

The melting point is given in degrees Celsius.
Boiling points are in °C, nominally at 760 mmHg.
logP is the log10 of the octanol-water partition coefficient; higher is more lipophilic.
Solubility in water is on a log10 molar scale (set defined at 25 °C).
Vapor pressure is log10 of mmHg; the set covers 15 to 30 °C, mostly 20 to 25 °C.
The Henry's law constant is on a log10 scale in atm·m3/mol (set defined at 25 °C); higher favours air over water.
fu is the fraction unbound in human plasma, from 0 to 1.

{"smiles": "CCCCCC1COCCC1OC(C)=O", "stereo": "stereo unspecified", "name": "Tetrahydro-3-pentyl-2H-pyran-4-yl acetate", "log solubility (log10 mol/L)": "-2.999", "vapor pressure (log10 mmHg)": "-2.435"}
{"smiles": "Cc1nn(C)c(F)c1C(=O)Nc1ccccc1C(C)CC(C)C", "stereo": "stereo unspecified", "name": "Penflufen", "vapor pressure (log10 mmHg)": "-8.511", "Henry's law constant (log10 atm·m3/mol)": "-9.985"}
{"smiles": "CCN(CC)c1ccc(N=Nc2c(C#N)cc([N+](=O)[O-])cc2C#N)c(NC(C)=O)c1", "mp (°C)": "252.4", "logP": "4.9", "log solubility (log10 mol/L)": "-8.103", "vapor pressure (log10 mmHg)": "-9.319"}
{"smiles": "COc1ccc(C(=O)Nc2ccc(C(N)=O)cc2)cc1[N+](=O)[O-]", "name": "N-(4-(Aminocarbonyl)phenyl)-4-methoxy-3-nitrobenzamide", "mp (°C)": "240", "logP": "1.75", "log solubility (log10 mol/L)": "-4.654"}
{"smiles": "C=C1CCC=C(C)CC[C@@H]2[C@@H]1CC2(C)C", "name": "beta-Caryophyllene", "logP": "6.23", "vapor pressure (log10 mmHg)": "-1.259"}
{"smiles": "c1ccc2c(NCCCN3CCOCC3)cccc2c1", "name": "4-Morpholinepropanamine, N-1-naphthalenyl-", "mp (°C)": "72", "logP": "2.765", "log solubility (log10 mol/L)": "-2.703", "vapor pressure (log10 mmHg)": "-4.979"}
{"smiles": "CCCCCCCCCCCCCCC(C)c1cc(C)cc(C)c1O", "stereo": "stereo unspecified", "name": "2-(Hexadecan-2-yl)-4,6-dimethylphenol", "mp (°C)": "-14.3", "vapor pressure (log10 mmHg)": "-6.202"}
{"smiles": "CC(CC(=O)OCCN1C(C)(C)CC(OC(=O)CC(C)CC(C)(C)C)CC1(C)C)CC(C)(C)C", "stereo": "stereo unspecified", "mp (°C)": "-46", "log solubility (log10 mol/L)": "-9.081"}
{"smiles": "CCOCCOC(C)(C)C", "name": "Propane, 2-(2-ethoxyethoxy)-2-methyl-", "logP": "2.2", "vapor pressure (log10 mmHg)": "1.443"}
{"smiles": "C=C(C)C(=O)OCCN(C)C", "name": "2-(Dimethylamino)ethyl methacrylate", "logP": "1.13", "vapor pressure (log10 mmHg)": "-0.181"}
{"smiles": "CNc1ccccc1C(=O)OC", "name": "Methyl N-methylanthranilate", "logP": "2.947", "log solubility (log10 mol/L)": "-2.7", "vapor pressure (log10 mmHg)": "-1.687"}
{"smiles": "CCCCC(=O)N(Cc1ccc(-c2ccccc2-c2nn[nH]n2)cc1)[C@H](C(=O)OCc1ccccc1)C(C)C", "name": "Valsartan benzyl ester", "mp (°C)": "175", "logP": "2.43", "log solubility (log10 mol/L)": "-5.766", "vapor pressure (log10 mmHg)": "-8.886"}
{"smiles": "C=CC(=O)OCC(C)OCC(C)OCC(C)OC(=O)C=C", "stereo": "stereo unspecified", "name": "Tripropylene glycol diacrylate", "logP": "2.05", "log solubility (log10 mol/L)": "-1.876", "vapor pressure (log10 mmHg)": "-4.481"}
{"smiles": "Cc1cc(C)c(S(=O)(=O)NC2CCCCC2)c(C)c1Nc1ccc(Nc2c(C)cc(C)c(S(=O)(=O)NC3CCCCC3)c2C)c2c1C(=O)c1ccccc1C2=O", "mp (°C)": "296", "log solubility (log10 mol/L)": "-4.819"}
{"smiles": "CC(C)OCCOC(=O)c1ccccc1O", "name": "2-(Propan-2-yloxy)ethyl 2-hydroxybenzoate", "logP": "3.25", "log solubility (log10 mol/L)": "-2.924", "vapor pressure (log10 mmHg)": "-2.652"}
{"smiles": "O=[N+]([O-])c1ccc(O)cc1C(F)(F)F", "name": "3-Trifluoromethyl-4-nitrophenol", "boiling point (°C)": "240.8", "logP": "2.84"}
{"smiles": "CCOCCOC(=O)OCC", "name": "Carbonic acid, 2-ethoxyethyl ethyl ester", "boiling point (°C)": "194", "vapor pressure (log10 mmHg)": "-0.377"}
{"smiles": "CCCCCCOC(=O)/C=C/C(=O)OCCCCCC", "name": "Dihexyl (2E)-2-butenedioate", "mp (°C)": "10", "log solubility (log10 mol/L)": "-6.278", "vapor pressure (log10 mmHg)": "-3.648"}
{"smiles": "Cc1cnn(C)c1", "name": "1,4-Dimethylpyrazole", "mp (°C)": "-45.8", "vapor pressure (log10 mmHg)": "0.4"}
{"smiles": "Cn1cc(C(=O)Nc2cccc3c2C2CCC3C2=C(Cl)Cl)c(C(F)F)n1", "stereo": "stereo unspecified", "name": "Benzovindiflupyr", "mp (°C)": "148.4", "logP": "4.3", "log solubility (log10 mol/L)": "-5.609", "vapor pressure (log10 mmHg)": "-10.62"}
{"smiles": "C=C(C)C(=O)OCCOc1ccc(C(=O)c2ccccc2)c(O)c1", "name": "2-(4-Benzoyl-3-hydroxyphenoxy)ethyl 2-methylprop-2-enoate", "mp (°C)": "89", "logP": "3.7"}
{"smiles": "CCCSc1nc(Cl)c([N+](=O)[O-])c(Cl)n1", "name": "4,6-Dichloro-5-nitro-2-(propylsulfanyl)pyrimidine", "mp (°C)": "-71.1", "logP": "2.6", "vapor pressure (log10 mmHg)": "-4.426"}
{"smiles": "CNC(=O)N(c1ccccc1)c1ccccc1", "name": "N'-Methyl-N,N-diphenylurea", "boiling point (°C)": "292.8", "logP": "1.69", "log solubility (log10 mol/L)": "-2.669", "vapor pressure (log10 mmHg)": "-7.25"}
{"smiles": "CCC(=O)O[C@@H]1C[C@H]2CC[C@]1(C)C2(C)C", "name": "Isobornyl propanoate", "logP": "5", "log solubility (log10 mol/L)": "-4.026", "vapor pressure (log10 mmHg)": "-1.634"}
{"smiles": "CCCCCOC(=O)Nc1nc(=O)n([C@@H]2O[C@H](C)[C@@H](O)[C@H]2O)cc1F", "name": "Capecitabine", "logP": "0.4", "plasma fu": "0.7"}
{"smiles": "CCOCCn1c(N2CCCN(C)CC2)nc2ccccc21", "name": "Emedastine", "logP": "2.6", "log solubility (log10 mol/L)": "-2.322"}
{"smiles": "CCOC(=O)[C@@H]1[C@@H](C(C)C)[C@@H]2C=C[C@H]1C2", "mp (°C)": "-19.15", "boiling point (°C)": "196.8", "log solubility (log10 mol/L)": "-4.104", "vapor pressure (log10 mmHg)": "0.201"}
{"smiles": "CC[N+](CC)(CC(=O)Nc1c(C)cccc1C)Cc1ccccc1.O=C([O-])c1ccccc1", "name": "Denatonium benzoate", "logP": "2.131", "log solubility (log10 mol/L)": "-1.02"}
{"smiles": "CC1=CCC(CCC(C)CO)C1(C)C", "stereo": "stereo unspecified", "name": "3-Cyclopentene-1-butanol, .beta.,2,2,3-tetramethyl-", "mp (°C)": "-67", "logP": "3.94", "log solubility (log10 mol/L)": "-3.843", "vapor pressure (log10 mmHg)": "-1.974"}
{"smiles": "COc1ccc(CN2C(=O)c3ccc4c5ccc6c7c(ccc(c8ccc(c3c48)C2=O)c75)C(=O)N(Cc2ccc(OC)cc2)C6=O)cc1", "logP": "1.6", "log solubility (log10 mol/L)": "-8.499"}
{"smiles": "C[SiH](C)c1ccccc1", "name": "Benzene, (dimethylsilyl)-", "logP": "3.99", "vapor pressure (log10 mmHg)": "0.565"}
{"smiles": "Cc1ccc(C=O)cc1C", "name": "3,4-Dimethylbenzaldehyde", "logP": "2.45", "log solubility (log10 mol/L)": "-2.277", "vapor pressure (log10 mmHg)": "-0.534"}
{"smiles": "C1CC2C3CC(C2C1)C1(CCCO1)C3", "stereo": "stereo unspecified", "name": "Decahydrospiro[furan-2(3H),5'-[4,7]methano[5H]indene]", "boiling point (°C)": "262.8", "logP": "4.7", "log solubility (log10 mol/L)": "-5.942", "vapor pressure (log10 mmHg)": "-1.83"}
{"smiles": "CC(C)CN(C[C@@H](O)[C@H](Cc1ccccc1)NC(=O)O[C@@H]1CCOC1)S(=O)(=O)c1ccc(N)cc1", "name": "Amprenavir", "log solubility (log10 mol/L)": "-4.057", "plasma fu": "0.1"}
{"smiles": "O=S(=O)([O-])c1ccc(O)c(/N=N/c2ccc3c(O)cccc3c2O)c1.[Na+]", "name": "C.I. Mordant Black 9, monosodium salt", "logP": "-1.4", "vapor pressure (log10 mmHg)": "-7.498"}
{"smiles": "CC1CCS(=O)(=O)C1", "stereo": "stereo unspecified", "name": "Thiophene, tetrahydro-3-methyl-, 1,1-dioxide", "mp (°C)": "-1.55", "logP": "-0.4", "vapor pressure (log10 mmHg)": "-2.139"}

Extract of 3 entries:

{"smiles": "C=C(C)C(=O)OCCOc1ccc(C(=O)c2ccccc2)c(O)c1", "name": "2-(4-Benzoyl-3-hydroxyphenoxy)ethyl 2-methylprop-2-enoate", "mp (°C)": "89", "logP": "3.7"}
{"smiles": "CNC(=O)N(c1ccccc1)c1ccccc1", "name": "N'-Methyl-N,N-diphenylurea", "boiling point (°C)": "292.8", "logP": "1.69", "log solubility (log10 mol/L)": "-2.669", "vapor pressure (log10 mmHg)": "-7.25"}
{"smiles": "CCN(CC)c1ccc(N=Nc2c(C#N)cc([N+](=O)[O-])cc2C#N)c(NC(C)=O)c1", "mp (°C)": "252.4", "logP": "4.9", "log solubility (log10 mol/L)": "-8.103", "vapor pressure (log10 mmHg)": "-9.319"}

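The numbers are reported measurements, compiled and curated for the OPERA QSAR suite. A listed value is a point estimate from one report or more. Method and conditions are not stated for these values. A value may pool stereoisomers or salt forms, and the file does not say which form was measured. Some upstream entries may be estimates or bounds without being marked so.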

From the experimental data distributed with OPERA 2.9.